Measured values as given in patent US6927230B2, “Triazole derivatives” (Fujisawa Pharmaceutical Co., Ltd., priority 2001, dated 2005).

By UniProt entry, the sequences of proteins in these tests, tags left out. Residues count along the entry.
UniProt P23219, 24-599: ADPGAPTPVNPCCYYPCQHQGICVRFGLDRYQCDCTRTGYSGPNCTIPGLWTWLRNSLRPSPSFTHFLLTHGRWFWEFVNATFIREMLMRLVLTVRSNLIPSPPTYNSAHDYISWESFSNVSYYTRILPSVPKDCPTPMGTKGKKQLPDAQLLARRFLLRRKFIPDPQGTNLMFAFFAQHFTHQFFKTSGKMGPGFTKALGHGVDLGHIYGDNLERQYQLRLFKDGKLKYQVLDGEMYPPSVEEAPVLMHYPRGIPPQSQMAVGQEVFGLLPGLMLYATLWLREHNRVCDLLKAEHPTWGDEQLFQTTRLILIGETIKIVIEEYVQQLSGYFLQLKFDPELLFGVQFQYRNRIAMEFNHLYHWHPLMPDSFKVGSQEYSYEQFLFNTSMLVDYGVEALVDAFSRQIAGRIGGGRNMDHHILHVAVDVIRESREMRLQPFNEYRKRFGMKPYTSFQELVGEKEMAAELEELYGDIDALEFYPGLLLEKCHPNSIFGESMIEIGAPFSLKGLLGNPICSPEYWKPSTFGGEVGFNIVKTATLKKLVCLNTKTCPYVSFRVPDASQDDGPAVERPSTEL

molecular target: T1, COX-I (Homo sapiens, UniProt P23219); assay: Whole blood assay for COX-I (TXB2 production); assay type: cell-based; conditions: 1 hr at 37 C
T1 construct: Fresh blood was collected by syringe without anticoagulants from volunteers with consent; from tissue; host or cells: fresh human whole blood from volunteers, no anticoagulant, allowed to clot
Description: Fresh blood was collected by syringe without anticoagulants from volunteers with consent. The subjects had no apparent inflammatory conditions and had not taken any medication for at least 7 days prior to blood collection. 500 μl aliquots of human whole blood were immediately incubated with 2 μl of either DMSO vehicle or a test compound at final concentrations for 1 hr at 37 C. to allow the blood to clot. Appropriate treatments (no incubation) were used as blanks. At the end of the incubation, 5 μl of 250 mM Indomethacin was added to stop the reaction. The blood was centrifuged at 6000×g for 5 min at 4 C to obtain serum. A 100 μl aliquot of serum was mixed with 400 μl methanol for protein precipitation. The supernatant was obtained by centrifuging at 6000×g for 5 min at 4 C and was assayed for TXB2 using an enzyme immunoassay kit according to the manufacturer's procedure. For a test compound, the results were expressed as percent inhibition of TXB2 production relative to control incubations containing DMSO vehicle. The data were analyzed by that a test compound at the indicated concentrations was changed log value and was applied simple linear regression. IC50 value was calculated by least squares method.

Row | IC50 [nM] | SMILES
1 | < 10 | COc1ccc(-c2nc(OCC(F)(F)F)nn2-c2ccc(OC)cc2)cc1 [Example 13, 1,5-bis(4-methoxyphenyl)-3-(2,2,2-trifluoroethoxy)-1H-1,2,4-triazole]
2 | < 10 | COc1ccc(-c2nc(OC)nn2-c2ccc(OC)cc2)cc1 [5(4), 3-Methoxy-1,5-bis(4-methoxyphenyl)-1H-1,2,4-triazole]
3 | < 10 | COc1ccc(-c2nc(OCF)nn2-c2ccc(OC)cc2)cc1 [Example 24, 1,5-bis(4-methoxyphenyl)-3-(fluoromethoxy)-1H-1,2,4-triazole]
